Source: US20190071493A1 (SCHOLAR ROCK, published 2019)

Sequences of proteins named here, by UniProt entry; tags and fusion partners are left off. Residues count along the entry.
UniProt G3XA59, 18-628 limits assumed, chain 1 of 2: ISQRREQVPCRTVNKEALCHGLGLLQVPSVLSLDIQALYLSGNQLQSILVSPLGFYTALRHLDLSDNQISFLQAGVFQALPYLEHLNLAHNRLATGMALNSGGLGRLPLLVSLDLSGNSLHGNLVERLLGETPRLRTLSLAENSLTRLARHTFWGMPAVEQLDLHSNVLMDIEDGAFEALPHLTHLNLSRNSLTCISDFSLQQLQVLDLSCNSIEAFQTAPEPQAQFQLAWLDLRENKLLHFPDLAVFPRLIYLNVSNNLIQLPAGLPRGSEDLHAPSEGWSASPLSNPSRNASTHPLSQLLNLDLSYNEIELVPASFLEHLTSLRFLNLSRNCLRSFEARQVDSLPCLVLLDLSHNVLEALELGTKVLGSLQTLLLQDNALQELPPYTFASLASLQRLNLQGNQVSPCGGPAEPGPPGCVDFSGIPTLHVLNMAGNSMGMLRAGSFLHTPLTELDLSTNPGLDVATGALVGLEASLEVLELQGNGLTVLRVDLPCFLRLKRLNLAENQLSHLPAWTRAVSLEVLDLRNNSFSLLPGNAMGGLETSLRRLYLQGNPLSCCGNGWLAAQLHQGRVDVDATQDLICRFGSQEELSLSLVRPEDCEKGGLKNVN
mouse GARP-proTGFβ1 complex, UniProt P04202, 30-390 limits assumed, chain 2 of 2: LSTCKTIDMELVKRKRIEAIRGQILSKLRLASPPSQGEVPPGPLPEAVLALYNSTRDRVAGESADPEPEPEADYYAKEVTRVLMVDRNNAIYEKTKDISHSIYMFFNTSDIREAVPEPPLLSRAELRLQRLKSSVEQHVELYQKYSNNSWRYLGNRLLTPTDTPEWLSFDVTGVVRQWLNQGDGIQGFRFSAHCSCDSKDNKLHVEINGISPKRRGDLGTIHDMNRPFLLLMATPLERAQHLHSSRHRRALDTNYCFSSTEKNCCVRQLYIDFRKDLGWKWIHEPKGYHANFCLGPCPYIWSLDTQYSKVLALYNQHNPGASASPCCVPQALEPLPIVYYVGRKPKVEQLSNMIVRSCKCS
UniProt Q14392, 18-627 limits assumed, chain 1 of 2: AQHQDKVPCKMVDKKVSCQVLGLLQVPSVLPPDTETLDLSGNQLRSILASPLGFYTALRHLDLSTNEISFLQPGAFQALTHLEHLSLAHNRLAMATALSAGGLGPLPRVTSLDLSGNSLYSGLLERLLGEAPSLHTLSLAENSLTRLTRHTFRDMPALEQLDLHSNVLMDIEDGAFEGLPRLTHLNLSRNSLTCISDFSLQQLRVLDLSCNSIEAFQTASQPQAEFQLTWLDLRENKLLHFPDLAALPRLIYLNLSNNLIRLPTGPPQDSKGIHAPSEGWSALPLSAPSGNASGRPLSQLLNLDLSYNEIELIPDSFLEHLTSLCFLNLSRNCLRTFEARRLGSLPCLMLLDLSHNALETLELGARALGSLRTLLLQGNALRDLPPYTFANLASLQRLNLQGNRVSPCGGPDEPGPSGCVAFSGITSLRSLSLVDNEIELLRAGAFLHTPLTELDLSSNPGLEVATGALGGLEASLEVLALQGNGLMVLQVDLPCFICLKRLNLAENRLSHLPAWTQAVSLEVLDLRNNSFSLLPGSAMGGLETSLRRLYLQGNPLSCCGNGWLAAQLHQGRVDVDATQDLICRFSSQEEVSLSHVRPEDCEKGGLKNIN
cynomolgus GARP-proTGFβ1 complex, UniProt P01137, 30-390 R228K: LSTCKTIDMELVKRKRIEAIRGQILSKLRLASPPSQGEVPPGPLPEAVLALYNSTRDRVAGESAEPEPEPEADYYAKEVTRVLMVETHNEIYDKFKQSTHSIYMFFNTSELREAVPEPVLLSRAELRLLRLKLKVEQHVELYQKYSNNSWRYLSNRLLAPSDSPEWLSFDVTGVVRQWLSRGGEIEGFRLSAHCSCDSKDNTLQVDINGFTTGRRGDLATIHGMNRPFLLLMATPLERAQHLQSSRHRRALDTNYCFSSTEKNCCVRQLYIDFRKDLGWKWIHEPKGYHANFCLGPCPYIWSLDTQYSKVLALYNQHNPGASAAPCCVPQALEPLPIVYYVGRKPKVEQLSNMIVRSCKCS
human GARP-proTGFβ1 complex, UniProt P01137, 30-390 limits assumed, chain 2 of 2: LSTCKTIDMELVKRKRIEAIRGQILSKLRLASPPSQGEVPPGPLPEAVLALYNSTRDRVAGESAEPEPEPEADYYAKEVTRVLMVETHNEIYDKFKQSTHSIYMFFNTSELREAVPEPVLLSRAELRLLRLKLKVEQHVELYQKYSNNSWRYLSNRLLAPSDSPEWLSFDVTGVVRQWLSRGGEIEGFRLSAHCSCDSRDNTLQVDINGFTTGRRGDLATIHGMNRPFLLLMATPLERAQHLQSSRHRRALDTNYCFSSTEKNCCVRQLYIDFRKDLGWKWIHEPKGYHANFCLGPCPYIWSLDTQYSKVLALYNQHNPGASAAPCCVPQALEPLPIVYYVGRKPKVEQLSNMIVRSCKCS

What was measured:
[1] = target: T1, mouse GARP-proTGFβ1 complex (mouse, UniProt G3XA59 18-628; P04202 30-390); test: species cross-reactivity screen; legend: ++ KD 1-10 nM
T1 construct: also called muGARP-proTGFβ1

[2] = target: T2, cynomolgus GARP-proTGFβ1 complex (cynomolgus); test: species cross-reactivity screen; legend: +++ KD < 1 nM
T2 construct: also called cyGARP-proTGFβ1

[3] = target: T3, human GARP-proTGFβ1 complex (human, UniProt Q14392 18-627; P01137 30-390, biotinylated (Octet protocol)); test: as above
T3 construct: Purified complex; the Octet protocol names biotinylated sGARP-proTGFβ1; also called huGARP-proTGFβ1; sGARP-proTGFβ1

B1: Ab1 (antibody, human IgG4 S228P, lambda, V domains shown)
VH: EVQLVESGGGLVQPGRSLRLSCAASGFTFSSYGMHWVRQAPGKGLEWVAVISYDGSNKYYADSVKGRFTISRDNSKNTLYLQMNSLRAEDTAVYYCARDIRPYGDYSAAFDIWGQGTLVTVSS
VL: NFMLTQPHSVSESPGKTVTISCTGSSGSIASNYVQWYQQRPGSAPSIVIFEDNQRPSGAPDRFSGSIDSSSNSASLTISGLKTEDEADYYCQSYDSSNHGGVFGGGTQLTVLG
notes: also called antibody Ab1; clone Ab1
Question: B1 was tested. Which KD [1] did it give?
Answer: The KD was 1 to 10 nM.

Question: And the KD [2]?
Answer: Its KD is < 1 nM.

B2: Ab2 (antibody, V domains shown)
VH: EVQLVQSGAEMKKPGESLKISCKGSGYNFASDWIGWVRQTPGKGLEWMGVIYPGDSDTRYSASFQGQVTISADKSINTAYLQWSSLKASDTAMYYCASAAGIAAAGHVTAFDIWGQGTMVTVSS
VL: not shown
notes: also called antibody Ab2; clone Ab2
Question: What does the source list for B2?
Answer: KD [3]: < 1 nM; KD [2]: < 1 nM
